The target in this test is NET (Rattus norvegicus, UniProt Q63380). Kind of test: NET binding assay, [3H]nisoxetine, rat frontal cortex membranes. The note with it: read-out: Ki NET (class IA).

Chains of the proteins cited; added tags and fusions are not shown. Residues count along the entry.
UniProt Q63380, 1-617: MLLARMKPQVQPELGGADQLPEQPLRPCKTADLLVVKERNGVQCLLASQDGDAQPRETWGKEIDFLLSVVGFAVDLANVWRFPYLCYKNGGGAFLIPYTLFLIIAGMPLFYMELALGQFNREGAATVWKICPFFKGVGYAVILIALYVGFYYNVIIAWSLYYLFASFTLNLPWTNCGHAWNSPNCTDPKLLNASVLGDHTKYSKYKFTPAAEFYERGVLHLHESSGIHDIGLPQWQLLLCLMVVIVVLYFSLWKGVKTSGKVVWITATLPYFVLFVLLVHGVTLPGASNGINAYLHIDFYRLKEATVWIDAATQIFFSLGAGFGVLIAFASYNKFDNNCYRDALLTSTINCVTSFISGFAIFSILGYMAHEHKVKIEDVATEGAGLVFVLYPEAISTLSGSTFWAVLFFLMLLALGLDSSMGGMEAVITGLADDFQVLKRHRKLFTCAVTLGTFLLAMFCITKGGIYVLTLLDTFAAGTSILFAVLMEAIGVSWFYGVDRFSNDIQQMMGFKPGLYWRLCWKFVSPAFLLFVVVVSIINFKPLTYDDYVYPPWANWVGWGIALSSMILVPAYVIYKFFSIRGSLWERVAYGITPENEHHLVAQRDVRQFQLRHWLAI

As to `NC(=O)C[S+]([O-])C(c1ccccc1)c1ccccc1` (stereo not shown) [Compound 2, 2-[(diphenylmethyl)sulfinyl]acetamide, reference compound], the inhibition at 100 µM is below 50%.
